Measurements: article PMC10054634, “Chemical Constituents of Thesium chinense Turcz and Their In Vitro Antioxidant, Anti-Inflammatory and Cytotoxic Activities” (Molecules, 2023)

Experiment: Cytotoxicity in RAW 264.7 cells (CCK-8)
Conditions: mouse

Work on `C[C@]12CC[C@H](O)C[C@@]1(O)CCC1C2CC[C@]2(C)[C@@H](C3=CC(=O)OC3)CC[C@]12O` (stereo partly shown) [Compound 4, perlplogemn] yielded an IC50 of over 200 µM.
